# Experimental data published in patent US20180153984A1, “ADJUVANT PARTICLES COMPRISING ADENOSINE RECEPTOR ANTAGONISTS” (The Regents of the University of California, priority 2015, published 2018).
# System: 4T1-1 2B mammary carcinoma cells
# Test: Antitumor adjuvant effect: intratumoral injection into bilateral mammary fat pad tumors
smiles,measurement,setting,value
"Nc1nc2c(cnn2CCc2ccccc2)c2nc(-c3ccco3)nn12 [SCH58261, 5-Amino-7-(2-phenylethyl)-2-(2-furyl)-pyrazolo(4,3-e)-1,2,4-triazolo(1,5-c)pyrimidine]",tumor growth,IP administration of 1 mg/kg,minimally reduced tumor growth
same,efficacy of IT injection relative to SCH-particles,IT injection of free antagonist,much less effective
